The target in the assay is Acetylcholinesterase (Rattus norvegicus, UniProt P37136). Description: ASSAY_NAME: ChEMBL_954151 (CHEMBL2351424) […].

The structures appear in SMILES notation. Only a part of the results on these compounds is given; other tests are left out.

`CCOP(=O)(OCC)Oc1ccc([N+](=O)[O-])cc1` had a kon (M-1-s-1) of 567 M⁻¹ s⁻¹.

The record behind these values is BindingDB's records for 23453838.
